Results published in patent publication US6025385A, “Taxane derivatives and drugs containing the same” (Kabushiki Kaisha Yakult Honsha, priority 1996, dated 2000).

Assay: Solubility in water (HPLC, shaken 2 hours at room temperature)
Settings: amount in 100 μl injected, purified water

## CC(=O)O[C@H]1C(=O)[C@@]2(C)[C@H]([C@H](OC(=O)c3ccccc3)[C@]3(O)C[C@H](OC(=O)[C@H](O)[C@@H](NC(=O)c4ccccc4)c4ccccc4)C(C)=C1C3(C)C)[C@]1(OC(C)=O)CO[C@@H]1C[C@@H]2O [Taxol, reference compound]
  Dissolved amount (Y) of Taxol: 0.04 μg/100 μl
